In PubChem BioAssay AID504706 (National Center for Advancing Translational Sciences (NCATS), 2011):
This is a selection; strong and weak results do not stand in their true shares. Inconclusive results are not listed. Active and inactive are the calls of the source. Calls come from the whole dose curve; as a rule, active = well fitted activation curve with a large enough effect; inconclusive = small, poorly fitted or top-dose-only effect; inactive = no such curve, though single readings can be large or run the other way.

experiment: qHTS assay for re-activators of p53 using a Luc reporter; conditions: H1299 p53-A138V BP100-luciferase reporter, luminescence, 24 h; at 92.2 µM (top of the series); note: % of control where 0% means no effect; nearly all actives have a fitted effect of over 45% in size
From the text: The p53 tumor suppressor plays a key role in suppression of tumorigenesis and in human carcinogenesis. It is frequently found inactivated in human cancers, mainly by point mutation. These point mutations are found in a wide variety of human cancers and a majority of them affect the DNA binding domain of the protein. The point mutations either alter native p53 conformation or abolish DNA contact. Additionally, cancer cells with p53 mutations are more resistant to chemo-radiation therapies. In order to find activators to reactivate this important protein, a cell-based screen for p53-dependent luciferase-reporter expression was developed. A p53-null H1299 lung cancer cell line was stably co-transfected with a temperature sensitive p53 mutant, p53-A138V, and a p53-responsive BP100-luciferase reporter. This cell model has previously been characterized in a gene chip profiling experiment for p53 activation. By lowering the culture temperature from 37 deg C (mutant p53 conformation) to 32 deg C (w.t. p53 conformation), a 30-60 fold increase in activation of luciferase activity is observed. At assay temperate, 37 deg C, basal reporter expression is very low and after the addition of detection reagent, a luminescent read-out is carried out. NIH Chemical Genomics Center [NCGC] NIH Molecular Libraries Probe Production Centers Network [MLPCN] MLPCN Grant: DA031088-01A1 Assay Provider (PI): Yi Sung, University of Michigan at Ann Arbor
5ul of 1000 cells per well are dispensed in all wells except column 4, into white solid-bottom TC-treated Kalypsys plates. The cells are kept in Opti-MEM and supplemented with 10% FBS and dispensed using a Multidrop (Thermo). Then using the Kalypsys pin-tool, 23nl of compounds are pinned. The compounds are starting concentration at 10mM, with 1:5 dilution, 4 points, and the control compound nocodazole is pinned in column 1 at 25mM, 1:3 dilution, in duplicate, 25mM nocodazole is pinned in column 2. Please note, all concentrations are working concentrations. 5ul of 1pM purified luciferase enzyme is dispensed using the Kalypsys dispenser in column 4. Plates are incubated for 24 hrs at 37 deg C, 5% CO2, and 95% humidity. Then 4ul of the detection reagent Amplite (ABD Bioquest) is added using the Kalypsys dispenser. Plates are incubated for 10 min at ambient room temperature and are then read on the ViewLux (Perkin Elmer) using a clear filter for a luminescent read-out.

Row | Compound | activity change, positive = activation
1 | COc1ccccc1OP(C)(=O)Nc1ccccc1Br (centres undefined) | inactive: 0.442%
2 | CC(C)(C)c1ccc(OP(C)(=O)O)cc1 | inactive: -0.802%
3 | CP(=O)(Nc1ccc(Cl)cc1)Oc1ccc(F)cc1 (centres undefined) | inactive: 7.94%
4 | CN(C)C(=O)c1c([N+](=O)[O-])cc([N+](=O)[O-])cc1[N+](=O)[O-] | inactive: -8.29%
5 | CCN(CC)CC(O)COC(=O)C(O)(c1ccccc1)C1CCCCC1 (centres undefined) | inactive: -20.8%
6 | COc1ccc(OP(C)(=O)Nc2ccc(Br)cc2)cc1 (centres undefined) | inactive: 1.12%
7 | COc1ccccc1OP(C)(=O)Nc1c(C)n(C)n(-c2ccccc2)c1=O (centres undefined) | inactive: 7.19%
8 | O=C(OCCCN1CCCC1)C(O)(c1ccccc1)C1CCCCC1 (centres undefined) | inactive: -8.65%
9 | CP(=O)(Oc1ccccc1)N1CCOC1=O (centres undefined) | inactive: 5.27%
10 | CCc1ccc(OP(C)(=O)Nc2cccnc2)cc1 (centres undefined) | inactive: -2.19%
11 | CCOC(=O)c1ccc(NP(C)(=O)Oc2ccc(Cl)cc2)cc1 (centres undefined) | inactive: -6.01%
12 | CP(=O)(OC12CC3CC(CC(C3)C1)C2)OC12CC3CC(CC(C3)C1)C2 | inactive: 17.9%
13 | Cc1nc2ccc3ccccc3c2o1.O=[N+]([O-])c1cc([N+](=O)[O-])c(O)c([N+](=O)[O-])c1 | inactive: -53.7%
14 | CP(=O)(Nc1ccc(Cl)cc1Cl)Oc1ccccc1 (centres undefined) | inactive: -1.07%
15 | CP(=O)(OCCOc1ccccc1)OCCOc1ccccc1 | inactive: -1.64%
16 | Cc1cc(C)cc(OP(C)(=O)Nc2cccc(C(F)(F)F)c2)c1 (centres undefined) | inactive: -0.561%
17 | COc1ccccc1OP(C)(=O)Nc1ccc(C)c(C)c1 (centres undefined) | inactive: -1.67%
18 | COc1ccc(OP(C)(=O)Nc2ccccc2Br)cc1 (centres undefined) | inactive: -5.73%
19 | Cc1c(NP(C)(=O)Oc2ccc(C(C)C)cc2)c(=O)n(-c2ccccc2)n1C (centres undefined) | inactive: -5.01%
20 | O=[N+]([O-])c1cc([N+](=O)[O-])c(Nc2ccccn2)c([N+](=O)[O-])c1 | inactive: -11.5%
21 | CP(=O)(Nc1ccccn1)Oc1ccccc1 (centres undefined) | inactive: -7.07%
22 | COc1ccccc1OP(C)(=O)Nc1ccc(C)cc1C (centres undefined) | inactive: -0.702%
23 | CCc1ccc(OP(C)(=O)O)cc1 | inactive: -6.42%
24 | COc1ccccc1OP(C)(=O)Nc1ccc(Br)cc1 (centres undefined) | inactive: 1.79%
25 | COc1ccc(OP(C)(=O)Nc2ccccn2)cc1 (centres undefined) | inactive: -1.54%
26 | CN(C)CCOC(=O)C(O)(c1ccccc1)C1CCCC1 (centres undefined) | inactive: -1.36%
27 | O=C(OCCN1CCN(CCOCc2ccccc2)CC1)C(O)(c1ccccc1)c1ccccc1 | inactive: -6.5%

Row | Compound | activity change, positive = activation
28 | CP(=O)(Nc1ccccc1F)Oc1ccccc1 (centres undefined) | inactive: -1.02%
29 | CC(C)c1ccc(OP(C)(=O)Nc2ccc(SC(F)(F)F)cc2)cc1 (centres undefined) | inactive: -0.0053%
30 | CCN(CC)CCCOC(=O)C(O)(c1ccccc1)C1CCCCC1 (centres undefined) | inactive: -8.08%
31 | CP(=O)(Nc1ccccc1)Oc1ccc(F)cc1 (centres undefined) | inactive: 2.5%
32 | CCCCCOc1ccc(NP(C)(=O)Oc2ccc(Cl)cc2Cl)cc1 (centres undefined) | inactive: 0.35%
33 | CCOC(=O)c1ccc(NP(C)(=O)Oc2ccc(F)cc2)cc1 (centres undefined) | inactive: -7.51%
34 | COc1ccc(OP(C)(=O)Nc2ccc(SC(F)(F)F)cc2)cc1 (centres undefined) | inactive: -4.74%
35 | O=[N+]([O-])c1ccc(OP2(=O)COCCO2)cc1 (centres undefined) | inactive: -0.424%
36 | Cc1cc(-c2cccc3ccccc23)c(C)cn1.O=[N+]([O-])c1cc([N+](=O)[O-])c(O)c([N+](=O)[O-])c1 | inactive: -0.838%
37 | COc1ccc(OP(C)(=O)Nc2cccc(Br)c2)cc1 (centres undefined) | inactive: -10.8%
38 | CN(C)CCOC(=O)C(O)(c1ccccc1)C1CCCCC1 (centres undefined) | inactive: 3.37%
39 | COc1ccc(NP(C)(=O)Oc2ccccc2OC)cc1 (centres undefined) | inactive: -0.577%
40 | CP(=O)(Nc1ccc2c(c1)OCCO2)Oc1ccccc1 (centres undefined) | inactive: 24.1%
41 | Cc1ccccc1NP(C)(=O)Nc1ccccc1C | inactive: -12.9%
42 | CP(=O)(Nc1ccc(SC(F)(F)F)cc1)Oc1ccc(F)cc1 (centres undefined) | inactive: -4.65%
43 | CCOP(C)(=S)SCC(=O)NC(C)(CC)C(=O)O (centres undefined) | inactive: 3.31%
44 | Cc1nc2ccc3ccccc3c2s1.O=[N+]([O-])c1cc([N+](=O)[O-])c(O)c([N+](=O)[O-])c1 | inactive: 2.95%
45 | O=[N+]([O-])c1cc([N+](=O)[O-])c(-n2nnc3ccccc32)c([N+](=O)[O-])c1 | inactive: -1.39%
46 | COc1ccccc1OP(C)(=O)Nc1c(C)cccc1C (centres undefined) | inactive: 7.88%
47 | CN1CCCCC1COC(=O)C1(O)c2ccccc2CCc2ccccc21 (centres undefined) | inactive: -13%
48 | CCCOc1ccc(NP(C)(=O)Oc2ccc(Cl)cc2)cc1 (centres undefined) | inactive: -3.8%
49 | CP(=O)(Nc1ccc(SC(F)(F)F)cc1)Oc1ccccc1 (centres undefined) | inactive: -3.94%
50 | CC1=C2N=C(C=C3N=C(C(C)=C4[N-][C@@](C)([C@@H]5N=C1[C@](C)(CCC(=O)NC[C@@H](C)OP(=O)([O-])O[C@H]1[C@@H](O)[C@@H](n6cnc7cc(C)c(C)cc76)O[C@@H]1CO)[C@H]5CC(N)=O)[C@@](C)(CC(N)=O)[C@@H]4CCC(N)=O)[C@@](C)(CC(N)=O)[C@@H]3CCC(N)=O)C(C)(C)[C@@H]2CCC(N)=O.[C-]#N.[Co+3] | inactive: -17.4%
51 | O=[N+]([O-])c1cc([N+](=O)[O-])c(Nc2nnnn2CCO)c([N+](=O)[O-])c1 | inactive: 6.88%
52 | CC1=NCCc2c1[nH]c1ccccc21.O=[N+]([O-])c1cc([N+](=O)[O-])c(O)c([N+](=O)[O-])c1 | inactive: -4.71%
53 | Cc1ccc(C)c(NP(C)(=O)Oc2ccccc2)c1 (centres undefined) | inactive: -9.89%
54 | Cc1cc(C)cc(OP(C)(=O)Nc2ccccn2)c1 (centres undefined) | inactive: -4.79%

Row | Compound | activity change, positive = activation
55 | CP(=O)(Nc1cccc(Br)c1)Oc1ccccc1 (centres undefined) | inactive: -0.0018%
56 | COc1ccccc1OP(C)(=O)Nc1cccc(Br)c1 (centres undefined) | inactive: -1%
57 | CCOC(=O)c1ccc(NP(C)(=O)Oc2cc(C)cc(C)c2)cc1 (centres undefined) | inactive: -2.32%
58 | Cc1cc(C)cc(OP(C)(=O)Nc2ccc(C)cc2C)c1 (centres undefined) | inactive: -1.1%
59 | CCN(CC)CCCOC(=O)C(O)(c1ccccc1)c1ccccc1 | inactive: 6.69%
60 | COc1ccccc1OP(C)(=O)Nc1ccc(C)cc1 (centres undefined) | inactive: -24.5%
61 | Cc1ccc(NP(C)(=O)Oc2ccccc2)c(C)c1 (centres undefined) | inactive: -5.96%
62 | CCOC(=O)c1ccc(NP(C)(=O)Oc2ccccc2)cc1 (centres undefined) | inactive: 1.13%
63 | Cc1cc(C)cc(OP(C)(N)=O)c1 (centres undefined) | inactive: -3.45%
64 | COc1ccccc1OP(C)(=O)Nc1cc(Cl)ccc1C (centres undefined) | inactive: -3.39%
65 | COc1ccc(OP(C)(=O)Nc2cccc(F)c2)cc1 (centres undefined) | inactive: -0.781%
66 | O=[N+]([O-])c1cc([N+](=O)[O-])c(Nc2cccnc2)c([N+](=O)[O-])c1 | inactive: -19.2%
67 | O=[N+]([O-])c1ccc2c(c1)C=Nc1ccccc1O2 | inactive: 4.94%
68 | CC(C)(C)c1ccc(OP(C)(=O)Nc2ccc(SC(F)(F)F)cc2)cc1 (centres undefined) | inactive: -2.67%
69 | Cc1cccc(C)c1OP(C)(N)=O (centres undefined) | inactive: -1.14%
70 | CP(=O)(Nc1ccccc1Br)Oc1ccccc1 (centres undefined) | inactive: -4.87%
71 | COc1ccccc1OP(C)(=O)Nc1ccccc1 (centres undefined) | inactive: 2.21%
72 | CCOC(=O)c1ccc(NP(C)(=O)Oc2ccc(OC)cc2)cc1 (centres undefined) | inactive: -19.9%
73 | CCOP(C)(=S)SCC(=O)NC(C)C(=O)O (centres undefined) | inactive: 3%
74 | Cc1cccc(C)c1OP(C)(=O)Nc1ccc(SC(F)(F)F)cc1 (centres undefined) | inactive: -1.63%
75 | CP(=O)(Nc1ccc(SC(F)(F)F)cc1)Oc1ccc(Cl)cc1 (centres undefined) | inactive: -1.54%
76 | CP(=O)(Oc1ccccc1)OC(c1ccccc1)C(F)(F)F (centres undefined) | inactive: 2.41%
77 | CP(=O)(NC(=O)Nc1ccccc1)Oc1ccccc1 (centres undefined) | inactive: -2.02%
78 | CCc1ccc(OP(C)(=O)N2CCN(c3ccc([N+](=O)[O-])cc3)CC2)cc1 (centres undefined) | inactive: -2.31%
79 | Cc1cc(C)cc(OP(C)(=O)Nc2ccc(SC(F)(F)F)cc2)c1 (centres undefined) | inactive: 4.4%
